{"source": "patent US20160213619A1", "about": "“INTRAORALLY DISINTEGRABLE TABLET COMPRISING DISINTEGRABLE GRANULAR COMPOSITION” (DAICEL CORPORATION, priority 2013, published 2016)", "experiment": "distribution coefficient (log P), measured between n-octanol and water", "assay_type": "physicochemical", "settings": "experimental value", "experimental": "On the other hand, the measured value of the distribution coefficient is calculated by the following equation using a concentration of a medicinal ingredient dissolved in each of two phases of water and n-octanol, which is obtained by a conventional quantitative method such as absorption spectrophotometry, gas chromatography or liquid chromatography:\nLog P=Log [(concentration of the medicinal ingredient in n-octanol phase)/(concentration of the medicinal ingredient in water phase)", "data": [{"substance": "famotidine", "values": [{"measurement": "logP Observed", "result": "−0.82"}]}]}
